Among the data in article PMC7729925, “Selective hepatitis B and D virus entry inhibitors from the group of pentacyclic lupane-type betulin-derived triterpenoids” (Scientific Reports, 2020) are IC50 values, retold here.

In this test the target is T1, NTCP (Homo sapiens, UniProt Q14973).
T1 construct: expressed in transfected cells
T1 sequence (Q14973 1-349): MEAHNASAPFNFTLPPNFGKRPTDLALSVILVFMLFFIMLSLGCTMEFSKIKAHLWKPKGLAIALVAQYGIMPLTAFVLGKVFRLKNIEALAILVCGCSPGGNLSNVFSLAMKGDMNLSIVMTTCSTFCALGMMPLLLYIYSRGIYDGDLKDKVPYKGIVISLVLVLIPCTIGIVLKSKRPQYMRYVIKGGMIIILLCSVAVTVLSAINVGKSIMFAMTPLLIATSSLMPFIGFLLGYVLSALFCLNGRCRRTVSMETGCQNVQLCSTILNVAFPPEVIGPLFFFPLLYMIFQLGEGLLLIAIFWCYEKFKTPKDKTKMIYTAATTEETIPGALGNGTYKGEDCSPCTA
Kind of test: [3H]TC transport (bile acid uptake) inhibition in NTCP-HEK293 cells. It is filed as cell-based. Conditions: mean IC50, […] µM [3H]TC, standard pH 7.4.

As a reminder, the IC50 is the point on the concentration scale where inhibition reaches its midpoint. `CO[C@H]1C[C@@H]2CC[C@@H](C)[C@@](O)(O2)C(=O)C(=O)N2CCCC[C@H]2C(=O)O[C@H]([C@H](C)C[C@@H]2CC[C@@H](O)[C@H](OC)C2)CC(=O)[C@H](C)/C=C(\C)[C@@H](O)[C@@H](OC)C(=O)[C@H](C)C[C@H](C)/C=C/C=C/C=C/1C` [rapamycin, reference compound] had an IC50 of 34 µM.
